Data taken from ChEMBL document CHEMBL2384973, “Pharmacological activity of retinoic acid receptor alpha-selective antagonists in vitro and in vivo” (ACS Med Chem Lett, 2013).

Amino acid sequences for entries named in this document (tags omitted).
UniProt P10276, whole entry: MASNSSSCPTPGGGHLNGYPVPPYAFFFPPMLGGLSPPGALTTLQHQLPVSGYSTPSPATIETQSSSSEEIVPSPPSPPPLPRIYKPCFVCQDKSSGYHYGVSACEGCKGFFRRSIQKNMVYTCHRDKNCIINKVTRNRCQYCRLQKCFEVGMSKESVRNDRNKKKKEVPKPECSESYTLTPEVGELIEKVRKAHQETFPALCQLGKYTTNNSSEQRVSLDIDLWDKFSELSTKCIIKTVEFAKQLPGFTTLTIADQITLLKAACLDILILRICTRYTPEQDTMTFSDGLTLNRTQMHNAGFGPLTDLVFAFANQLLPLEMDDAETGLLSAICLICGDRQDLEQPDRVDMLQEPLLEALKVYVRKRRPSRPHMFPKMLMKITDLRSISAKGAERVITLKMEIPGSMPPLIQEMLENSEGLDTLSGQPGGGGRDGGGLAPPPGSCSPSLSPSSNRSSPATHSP

Experiments:
[1] = target: Retinoic acid receptor alpha (Homo sapiens) (UniProt P10276); assay: Antagonist activity at human RARalpha expressed in human HeLa cells assessed as inhibition of ATRA-induced RARE-chloramphenicol acetyltransferase reporter gene expression after 24 hrs by transactivation competition assay; assay type: cell-based
Method in brief: (§1)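 HeLa cells cotransfected with RAR constructs and a constant beta-galactosidase plasmid as internal control, given 10–7 M ATRA (submaximal) plus increasing concentrations of compound; CAT reporter expression measured after 24 h. RARα, RARβ and RARγ tested. Vehicle control was dilution medium without retinoid; ATRA served as positive control.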

[2] = target: Retinoic acid receptor alpha (Homo sapiens) (UniProt P10276); assay: Antagonist activity at human RARalpha expressed in human HeLa cells assessed as inhibition of ATRA-induced RARE transactivation after 24 hrs by chloramphenicol acetyltransferase reporter gene assay; assay type: cell-based; method in brief: as §1

Question: What does the source list for `CC1(C)CC=C(c2cnc3ccccc3c2)c2cc(C(=O)Nc3ccc(C(=O)O)cc3)ccc21`?
Answer: Activity [1]: Active; Activity [2]: Active

Calls of active or inactive are those of the source. The rule behind the calls is not given here.
